This is a selection: effects in other tests are not listed, and their absence says nothing.
What was measured:
[1] = tested on: tomato leaf transpiration; assay: tomato leaf transpiration inhibition (porometer, normalized to water-sprayed plants); format: in vivo, Tomato (variety: Rutgers); details: foliar
[2] = tested on: tomato leaf; assay: tomato leaf phytotoxicity (number of injured leaves) after foliar application

With ammonium nitrate the “Transpiration rate (% of control)” value ([1]; 1 mM NH4NO3 alone, 1 day after treatment) was 107 % of control, the “Transpiration rate (% of control)” value ([1]; 1 mM NH4NO3 alone, 2 days after treatment) was 107 % of control and the “Transpiration rate (% of control)” value ([1]; 1 mM NH4NO3 alone, 3 days after treatment) was 106 % of control. The “Transpiration rate (% of control)” value ([1]; 1 mM NH4NO3 alone, 4 days after treatment) was 83 % of control, the “Transpiration rate (% of control)” value ([1]; 10 mM NH4NO3 alone, 1 day after treatment) was 95 % of control and the “Transpiration rate (% of control)” value ([1]; 10 mM NH4NO3 alone, 2 days after treatment) was 95 % of control. For the same substance, the “Transpiration rate (% of control)” value ([1]; 10 mM NH4NO3 alone, 3 days after treatment) was 131 % of control, the “Transpiration rate (% of control)” value ([1]; 10 mM NH4NO3 alone, 4 days after treatment) was 106 % of control and the “Transpiration rate (% of control)” value ([1]; 100 mM NH4NO3 alone, 1 day after treatment) was 97 % of control. For the same substance, the “Transpiration rate (% of control)” value ([1]; 100 mM NH4NO3 alone, 2 days after treatment) was 97 % of control, the “Transpiration rate (% of control)” value ([1]; 100 mM NH4NO3 alone, 3 days after treatment) was 128 % of control and the “Transpiration rate (% of control)” value ([1]; 100 mM NH4NO3 alone, 4 days after treatment) was 107 % of control. The “effect on tomato leaf transpiration (in words)” value ([1]; fertilizer or salt alone at 1, 10 or 100 mM) was “did not reduce tomato leaf transpiration”, the “number of injured leaves” value ([2]; 100 mM NH4NO3 alone, 4 days after treatment, Table 9) was 8.8 and the “number of injured leaves” value ([2]; 100 mM ammonium nitrate without ABA, 4 days of treatment) was 8.8 injured leaves per plant.
